Assay results: patent US5773239A, “Mannosidase inhibitors, process for their preparation and their use as therapeutic agents” (Mount Sinai Hospital Corporation., priority 1995, dated 1998)

Target: T1, Jack Bean α-mannosidase (Canavalia ensiformis, UniProt C0HJB3)
T1 construct: purchased Sigma
T1 sequence (C0HJB3 1-981): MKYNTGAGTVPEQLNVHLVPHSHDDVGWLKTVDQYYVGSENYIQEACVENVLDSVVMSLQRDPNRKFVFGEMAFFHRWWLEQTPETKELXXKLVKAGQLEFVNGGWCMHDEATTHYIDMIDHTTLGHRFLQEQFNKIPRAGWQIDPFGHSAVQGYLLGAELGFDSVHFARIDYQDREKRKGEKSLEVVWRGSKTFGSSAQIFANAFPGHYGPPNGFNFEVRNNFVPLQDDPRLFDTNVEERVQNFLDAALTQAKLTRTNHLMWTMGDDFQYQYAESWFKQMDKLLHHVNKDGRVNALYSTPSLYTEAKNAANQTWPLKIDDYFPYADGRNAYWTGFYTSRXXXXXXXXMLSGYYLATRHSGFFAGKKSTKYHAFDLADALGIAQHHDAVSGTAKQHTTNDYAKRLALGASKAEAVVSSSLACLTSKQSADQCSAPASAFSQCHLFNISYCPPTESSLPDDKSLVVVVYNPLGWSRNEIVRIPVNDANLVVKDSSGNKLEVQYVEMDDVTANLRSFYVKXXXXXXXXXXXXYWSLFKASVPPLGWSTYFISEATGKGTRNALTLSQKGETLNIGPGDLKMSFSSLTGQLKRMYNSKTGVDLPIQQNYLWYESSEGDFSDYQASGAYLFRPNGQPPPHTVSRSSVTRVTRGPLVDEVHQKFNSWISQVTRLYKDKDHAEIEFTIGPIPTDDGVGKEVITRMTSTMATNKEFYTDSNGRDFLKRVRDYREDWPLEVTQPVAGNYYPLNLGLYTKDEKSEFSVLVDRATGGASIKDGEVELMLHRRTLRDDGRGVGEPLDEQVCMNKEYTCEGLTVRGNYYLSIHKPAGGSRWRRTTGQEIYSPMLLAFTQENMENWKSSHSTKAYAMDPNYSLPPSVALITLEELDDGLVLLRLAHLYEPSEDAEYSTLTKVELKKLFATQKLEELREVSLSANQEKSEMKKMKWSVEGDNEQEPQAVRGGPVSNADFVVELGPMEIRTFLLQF
Experiment: Inhibition of Jack Bean α-mannosidase
Type: biochemical
Settings: p-nitrophenyl α-D-mannopyranoside, pH 5.0, 20 min 37° C.; read-out: IC50 for inhibition of J.B. α-mannosidase
Procedure: SW and analogues were serially diluted into a volume of 75 μl in 96 well Elisa plates followed by the addition of 37.5 μl of 100 mM sodium acetate pH 5.0 and 37.5 μl of 10 mM p-nitrophenyl α-D-mannospyranoside. Jack Bean α-mannosidase (Sigma, 38 U/ml) was diluted 1/800, 10 μl was added to each well and the plates were incubated for 20 min at 37° C. The reaction was stopped by the addition of 150 μl of 0.5M sodium carbonate and formation of p-nitrophenol was measured with a plate set at 405 nm. The effects of SW and analogues on cellular acid α-mannosidases (ie. lysosomal enzyme) were measured using the same assay where Jack Bean α-mannosidase was replaced by 10 μl MDAY-D2 tumor cell lysate (10 μg/μl of protein) prepared in 0.9% NaCl, 50 mM Tris pH 7.0, 0.5% Triton X-100 and 1.0 mM diethyl p-nitrophenyl phosphate.

SMILES: O[C@H]1[C@H]2[C@H](O)CCCN2C[C@H]1O [SW, Swainsonine, reference compound]
- IC50: 400 nM
